These results are taken from PubChem BioAssay AID940 (Emory University Molecular Libraries Screening Center, 2007).

By UniProt entry, the sequences of proteins in these tests, tags left out.
UniProt P43116, whole entry: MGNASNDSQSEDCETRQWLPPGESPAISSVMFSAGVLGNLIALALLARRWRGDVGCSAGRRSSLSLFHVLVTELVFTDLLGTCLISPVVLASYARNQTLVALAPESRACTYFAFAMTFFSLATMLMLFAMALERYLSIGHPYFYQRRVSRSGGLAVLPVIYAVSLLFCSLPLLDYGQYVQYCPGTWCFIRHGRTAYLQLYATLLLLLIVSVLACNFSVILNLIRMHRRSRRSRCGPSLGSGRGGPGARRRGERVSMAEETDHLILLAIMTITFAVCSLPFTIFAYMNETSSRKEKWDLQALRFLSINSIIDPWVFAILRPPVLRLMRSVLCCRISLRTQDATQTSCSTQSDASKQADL

The list shows a part of the results, in another mix than the full data. The source made the active and inactive calls.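 The calls were made as follows: active = compounds whose cAMP rise, as percent of the full-agonist control response, exceeds 60; inactive = the rest.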

This assay has as its target Prostaglandin E2 receptor EP2 subtype (Homo sapiens) (UniProt P43116). As to the kind of experiment: EP2 receptor modulators, cAMP readout, primary screen, cell-based, HTRF cAMP, PGE2 stimulation (AID 940).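 Also: rat C6 glioma line stably carrying human EP2 under a CMV promoter; the protocol text gives 20 µM as final concentration; 100% = response of wells given 1 µM PGE2.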 Conditions: EP2-expressing cells, cAMP HTRF FRET, PGE2 co-stimulation; at 25 µM; active compounds read high. A general note: TR-FRET usually uses a lanthanide donor and a delayed reading to cut background.
Turning to `N1=C(c2nnc(-c3nn[nH]n3)nn2)NNN1`, the induction is inactive: 17.7%.

Consider `CP(=O)(Nc1ccccc1Br)Oc1ccccc1` (stereo not drawn), for which the induction was inactive: 8.07%.

In the case of `COc1ccccc1OP(C)(=O)Nc1ccccc1` (stereo not drawn), the induction was inactive: 19.4%.

Take `CP(=S)(Nn1cnnc1)Oc1ccccc1` (stereo not drawn): the induction was inactive: 9.61%.

As for `CCc1ccc(OP(C)(=O)N2CCN(c3ccc([N+](=O)[O-])cc3)CC2)cc1` (stereo not drawn), the induction is inactive: -65.8%.

For `CP(=O)(NC(=O)Nc1ccccc1)Oc1ccccc1` (stereo not drawn), the induction was inactive: 16.5%.

As for `Cc1cc(C)cc(OP(C)(=O)Nc2ccc(SC(F)(F)F)cc2)c1` (stereo not drawn), the induction was inactive: 8.22%.

Turning to `Cc1cccc(C)c1OP(C)(=O)Nc1ccc(SC(F)(F)F)cc1` (stereo not drawn), the induction was inactive: 13.6%.

On to `CP(=O)(Nc1ccc(SC(F)(F)F)cc1)Oc1ccc(Cl)cc1` (stereo not drawn), for which the induction is inactive: -70.2%.

Regarding `CP(=O)(Oc1ccccc1)OC(c1ccccc1)C(F)(F)F` (stereo not drawn), the induction is inactive: 43.6%.

For the compound `CP(=O)(Nc1ccccn1)Oc1ccc(Cl)cc1` (stereo not drawn), the induction is inactive: 8.77%.

As to `CCOC(=O)c1ccc(NP(C)(=O)Oc2ccc(OC)cc2)cc1` (stereo not drawn), the induction was inactive: -10.8%.

As to `CCOP(C)(=S)SCC(=O)NC(C)C(=O)O` (stereo not drawn), the induction was inactive: 3.17%.

With `CCN(CC)CCCOC(=O)C(O)(c1ccccc1)c1ccccc1`, the induction was inactive: 15.6%.

In the case of `O=[N+]([O-])c1ccc2c(c1)C=Nc1ccccc1O2`, the induction is inactive: -30.6%.

With `CC(C)(C)c1ccc(OP(C)(=O)Nc2ccc(SC(F)(F)F)cc2)cc1` (stereo not drawn), the induction is inactive: -14.3%.

For the compound `Cc1cccc(C)c1OP(C)(N)=O` (stereo not drawn), the induction was inactive: 9.86%.

In the case of `Cc1cc(C)cc(OP(C)(N)=O)c1` (stereo not drawn), the induction is inactive: 8.25%.

With `COc1ccccc1OP(C)(=O)Nc1cc(Cl)ccc1C` (stereo not drawn), the induction was inactive: -3.59%.

On to `COc1ccc(OP(C)(=O)Nc2cccc(F)c2)cc1` (stereo not drawn), for which the induction was inactive: -14.9%.

As for `COc1ccccc1OP(C)(=O)Nc1ccc(C)cc1` (stereo not drawn), the induction is inactive: 1.26%.

Take `Cc1ccc(NP(C)(=O)Oc2ccccc2)c(C)c1` (stereo not drawn): the induction is inactive: 9.78%.

Take `CCOC(=O)c1ccc(NP(C)(=O)Oc2ccccc2)cc1` (stereo not drawn): the induction was inactive: -51.1%.

As for `O=C(O)c1cccc(Nc2c([N+](=O)[O-])cc([N+](=O)[O-])cc2[N+](=O)[O-])c1`, the induction was inactive: 25.9%.

With `CC1=NCCc2c1[nH]c1ccccc21.O=[N+]([O-])c1cc([N+](=O)[O-])c(O)c([N+](=O)[O-])c1`, the induction is inactive: 10.4%.

Take `CCOC(=O)c1ccc(NP(C)(=O)Oc2cc(C)cc(C)c2)cc1` (stereo not drawn): the induction is inactive: -68.2%.

On to `Cc1cc(C)cc(OP(C)(=O)Nc2ccc(C)cc2C)c1` (stereo not drawn), for which the induction was inactive: 1.66%.

Turning to `COc1ccccc1OP(C)(=O)Nc1cccc(Br)c1` (stereo not drawn), the induction is inactive: -9.21%.
